Bioassay records as filed in PubChem.
TDP1 inh: blocks human tyrosyl-DNA phosphodiesterase 1; recombinant TDP1, AlphaScreen DNA substrate cleavage; Potency, µM (doses to about 130 µM), inactives show at the top dose activity change, negative = inhibition, hits mostly inhibitors; actives 0.28% (n = 350,000); also: potency is read from the fitted curve at half-maximal effect; % is scaled to controls: 0 for no effect and ±100 for the full control effect; nearly all actives have a fitted effect of over 40% in size
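Tdp1 1 nM final; 15 min RT w/ cpd; substrate 15 nM, 5 min; beads 10 ug/ml, 10 min; AlphaScreen read. Neg ctrl: no enzyme.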
TDP1 cell noCPT: qHTS for Inhibitors of human tyrosyl-DNA phosphodiesterase 1 (TDP1): qHTS in cells in absence of CPT; actives 15% (n = 420,000); DT40 Tdp1-/- hTDP1 cells, no CPT, ATP luminescence, 48 h; Potency, µM (highest dose often 46.2 µM), without a hit: at the top dose activity change, negative = growth inhibition, actives largely listed as inhibitors; also: potency is read from the fitted curve at half-maximal effect; % is scaled to controls: 0 for no effect and ±100 for the full control effect; nearly all actives have a fitted effect of over 55% in size
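Cells were dispensed at 400 per well, compounds added by pin tool, plates incubated ≥48 hr at 37 °C, then CellTiter-Glo added for 30 min at room temperature before luminescence reading. Line: DT40 Tdp1-/- complemented with hTDP1; camptothecin omitted.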
TDP1 cell CPT: DT40-hTDP1 cell growth loss with CPT. chicken DT40 Tdp1-/-;hTDP1 cells + 20 nM CPT, ATP luminescence, 48 h. Potency, µM (highest dose often 46.2 µM), for inactives: top-dose activity change, negative = growth inhibition, actives largely listed as inhibitors. actives 12% (n = 420,000). AID 686979; also: potency is read from the fitted curve at half-maximal effect; % is scaled to controls: 0 for no effect and ±100 for the full control effect; nearly all actives have a fitted effect of over 55% in size
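Chicken DT40 Tdp1-/- cells complemented with human TDP1, 400 cells/well, exposed to compounds plus 20 nM camptothecin for at least 48 h at 37 C; viability read as ATP content by CellTiter-Glo luminescence.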
uPA generation: inhibitors of cell surface uPA generation; cell surface uPA generation assay, qHTS; Potency, µM (highest dose often 38.3 µM), for inactives: at the highest dose activity change, negative = inhibition, usual class: inhibitors; actives 0.31% (n = 330,000); active = well fitted inhibition curve with a large enough effect; inconclusive = small, poorly fitted or top-dose-only effect; inactive = no such curve, though single readings can be large or run the other way; tested in mouse RAW 264.7 cells; also: potency is read from the fitted curve at half-maximal effect; % is scaled to controls: 0 for no effect and ±100 for the full control effect; nearly all actives have a fitted effect of over 55% in size
miR-21 FLuc: miR-21 reporter, rising signal | HeLa miR-21 FLuc reporter, luciferase, 48 h | Potency, µM (top dose mostly 38.3 µM), inactives show at the highest dose reporter change, positive = more light | 340,000 tested, under 10 active | AID 2288; active = well fitted rising curve with a large enough effect; inconclusive = small, poorly fitted or top-dose-only effect; inactive = no such curve, though single readings can be large or run the other way;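 note: % of control where 0% means no effect; miR-21 action dims this reporter so a rising signal means less miR-21 action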
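HeLa miR-21-FLuc reporter line, endogenous miR-21; 2000 cells/well in DMEM/10% FBS; compound titration up to ~40uM final, 48 h, 37 degree Celsius; luciferase detection reagent, 15 min lysis, CCD luminescence.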
An asterisk follows results filed as active; ? = inconclusive; . = no result given. Only some compounds are listed: those with a hit (about 16% of all), similar ones and a draw of the others. Unless noted, calls follow the shape of the dose curve; as a rule, active = well fitted curve in the direction sought with a large enough effect; inconclusive = small, poorly fitted or top-dose-only effect, or another doubt; inactive = no such curve, though single readings can be large; an effect the other way counts as inactive or inconclusive.

SMILES	TDP1 inh	TDP1 cell noCPT	TDP1 cell CPT	uPA generation	miR-21 FLuc
O=C(Nc1ccc2c(c1)N(C1CCCC1)C(=O)c1ccccc1S2)c1ccccc1	-2%	12µM*	?	.	?
NC(=S)NNC(=O)c1ccccc1	2%	5%	0%	.	-8%
CCCc1nn(C)c2c(=O)[nH]c(-c3cc(S(=O)(=O)Nc4ccc(NC(C)=O)cc4)ccc3OCC)nc12	4%	?	10µM*	1%	-27%
CCCc1nn(C)c2c(=O)[nH]c(-c3cc(S(=O)(=O)N4CCN(C)CC4)ccc3OCC)nc12	7%	-12%	-8%	4%	-1%
CCOC(=O)N1CCN(Cc2nc3cc(NC(=O)C(C)C)ccc3n2C(C)C)CC1	1%	2.6µM*	5.2µM*	.	21%
CCCn1c(CN2CCN(C(=O)OCC)CC2)nc2cc(NC(=O)CC)ccc21	.	4.6µM*	3.3µM*	-15%	20%
CCOC(=O)N1CCN(Cc2nc3cc(NC(=O)C(C)C)ccc3n2C)CC1	.	-12%	-2%	6%	-3%
CCOC(=O)N1CCN(Cc2nc3cc(NC(=O)c4ccc(OC)cc4)ccc3n2C(C)C)CC1	-1%	?	4.1µM*	.	21%
CCOC(=O)N1CCN(Cc2nc3cc(NC(=O)c4ccc(F)cc4)ccc3n2C(C)C)CC1	2%	1µM*	0.92µM*	.	23%
CCC(Oc1ccccc1)C(=O)Nc1cccc(OCc2cc(=O)n3cccc(C)c3n2)c1 (stereo not drawn)	3%	16µM*	23µM*	.	-6%
Cc1ccc(OCC(=O)Nc2cccc(OCc3cc(=O)n4cccc(C)c4n3)c2)cc1C	3%	18µM*	15µM*	.	-1%
COc1ccc(NC(=O)Nc2cccc(OCc3cc(=O)n4cccc(C)c4n3)c2)c(OC)c1	-3%	13µM*	?	.	-1%

A different layout for some results above:
Cc1ccc(OCC(=O)Nc2cccc(OCc3cc(=O)n4cccc(C)c4n3)c2)cc1C
  TDP1 inh: 3%
  TDP1 cell noCPT: 18µM*
  TDP1 cell CPT: 15µM*
  uPA generation: .
  miR-21 FLuc: -1%

COc1ccc(NC(=O)Nc2cccc(OCc3cc(=O)n4cccc(C)c4n3)c2)c(OC)c1
  TDP1 inh: -3%
  TDP1 cell noCPT: 13µM*
  TDP1 cell CPT: ?
  uPA generation: .
  miR-21 FLuc: -1%

CCOC(=O)N1CCN(Cc2nc3cc(NC(=O)c4ccc(OC)cc4)ccc3n2C(C)C)CC1
  TDP1 inh: -1%
  TDP1 cell noCPT: ?
  TDP1 cell CPT: 4.1µM*
  uPA generation: .
  miR-21 FLuc: 21%

O=C(Nc1ccc2c(c1)N(C1CCCC1)C(=O)c1ccccc1S2)c1ccccc1
  TDP1 inh: -2%
  TDP1 cell noCPT: 12µM*
  TDP1 cell CPT: ?
  uPA generation: .
  miR-21 FLuc: ?

Later entries
SMILES	TDP1 inh	TDP1 cell noCPT	TDP1 cell CPT	uPA generation	miR-21 FLuc
CC(=O)Nc1nc(SCC(=O)NCC2CCCO2)[nH]c(=O)c1NC(=O)c1cccs1 (stereo not drawn)	0%	1%	6%	0%	2%
COC(=O)c1c(C)[nH]c(C)c1-c1ccc(C)cc1	7%	?	-28%	3%	-1%
COc1ccc(-n2cc(CN[C@H]3CCCCNC3=O)c(-c3cccc(F)c3)n2)cc1	.	5.8µM*	5.8µM*	-3%	5%
COc1ccc(-n2cc(CNC3CCN(C)CC3)c(-c3cccc(F)c3)n2)cc1	3%	15µM*	15µM*	-6%	13%
Cc1cccc(-n2cc(CN3CCN(Cc4nccn4C)CC3)c(-c3cccc(F)c3)n2)c1	8%	?	?	6%	-1%
COc1ccc(N2C(=O)CC(NC3CCCCNC3=O)C2=O)cc1 (stereo not drawn)	4%	-16%	0%	-1%	2%
COc1ccc(-n2cc(CN3CCCC3)c(-c3cccc(F)c3)n2)cc1	5%	21µM*	?	-12%	-13%
O=C(Cc1ccc([N+](=O)[O-])cc1)NNC(=O)c1cccs1	.	10%	13%	-5%	-3%
O=C(Nc1ccc(Cl)cc1Cl)C1=Cc2ccccc2OC1	0%	-17%	-20%	-2%	-38%
O=c1c2ccccc2nc(SCc2cc(F)ccc2F)n1C1CCCC1	2%	-14%	0%	7%	-2%
Cc1cnc(NS(=O)(=O)c2ccc(Cl)cc2)c(Br)c1	1%	-18%	27%	-2%	4%
CCCc1nc2ccccc2c(C(=O)OC(C)C(=O)NCc2ccc3c(c2)OCO3)c1CC (stereo not drawn)	3%	18µM*	29µM*	5%	22%
CCc1nc2ccccc2c(C(=O)OCC(=O)NCc2ccc3c(c2)OCO3)c1C	3%	18µM*	?	2%	-3%
CCCc1nc2ccccc2c(C(=O)OCC(=O)NCc2ccc3c(c2)OCO3)c1CC	3%	?	?	-1%	5%
CC(OC(=O)CCc1nc2ccccc2c(=O)[nH]1)C(=O)NCc1ccc2c(c1)OCO2 (stereo not drawn)	3%	-8%	-22%	.	5%
O=S(=O)(NC1CCCCCCC1)c1ccccc1F	-6%	?	?	-5%	-3%
COc1ccccc1C(=O)NCCC(=O)NCC1COc2ccccc2O1 (stereo not drawn)	2%	?	-7%	-1%	.
O=c1cnn(Cc2ccc(Cl)c(Cl)c2)c2ccccc12	0%	15µM*	21µM*	-1%	-5%
O=c1c2ccccc2cnn1Cc1ccc(Cl)c(Cl)c1	.	?	-6%	7%	-10%
CNC(=O)c1nc(C)n(-c2ccc(Cl)cc2Cl)n1	-1%	?	12µM*	2%	-2%
COc1ccccc1CCc1nnc(CCC(=O)NCC[C@@H]2C[C@@H]3C=C[C@H]2C3)o1	2%	18µM*	15µM*	0%	-5%
O=C1c2cccc(OCC(=O)N3N=C(c4cccs4)CC3c3ccc(F)cc3)c2CCN1Cc1cccnc1 (stereo not drawn)	2%	10µM*	9.2µM*	-12%	7%
CCOC(=O)N1CCN(C(=O)COc2cccc3c2CCN(Cc2cccc(C)c2)C3=O)CC1	-4%	15µM*	23µM*	-11%	10%
O=C1c2cccc(OCC(=O)N3CCCc4ccccc43)c2CCN1Cc1cccnc1	6%	9.2µM*	23µM*	-10%	?
CCOC(=O)N1CCN(C(=O)COc2cccc3c2CCN(Cc2ccccc2C)C3=O)CC1	-5%	?	?	-7%	-5%
Cc1ccccc1CN1CCc2c(OCC(=O)N3CCCc4ccccc43)cccc2C1=O	0%	18µM*	18µM*	-14%	?
O=C(c1cccnc1)N1N=C(c2cccs2)CC1c1ccc(F)cc1 (stereo not drawn)	5%	-22%	6%	1%	-13%
Cc1nn(S(=O)(=O)c2ccc([N+](=O)[O-])cc2)c(C)c1Sc1ccccc1	.	?	?	-10%	.
CN(CC(=O)Nc1ccc(N2CCOCC2)cc1)C(=O)c1cc2c(s1)CCCC2	2%	-11%	-9%	6%	.
O=C(CCc1ccccc1)NNC(=O)C1CCCCC1	4%	-3%	-28%	.	-5%
O=C1NC(c2ccccc2)N=C2Oc3ccccc3C=C12 (stereo not drawn)	.	4.6µM*	4.6µM*	-16%	.
c1ccc(C2Nc3ccccc3Oc3ccccc32)cc1 (stereo not drawn)	10%	-14%	-18%	7%	-2%
CCCCNC(=O)c1sc(=S)n2c1[nH]c(=O)c1ccccc12	1%	?	-25%	0%	2%
O=C(NC1CCCCC1)c1sc(=S)n2c1[nH]c(=O)c1ccccc12	2%	23µM*	16µM*	3%	-1%
